Apparent affinities of Ab-14 variants for a coronavirus HR2 peptide

The target is the same throughout: PDVDLGDISGINAS, from the HR2 region of SARS-CoV-2 spike.

The variants keep the heavy chain, the linker and the frameworks of Ab-14 (scFv order VH, a (GGGGS)3 linker, VL).
VH: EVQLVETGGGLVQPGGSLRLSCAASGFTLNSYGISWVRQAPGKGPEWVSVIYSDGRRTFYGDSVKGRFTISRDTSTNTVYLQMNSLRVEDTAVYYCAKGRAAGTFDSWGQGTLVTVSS
VL: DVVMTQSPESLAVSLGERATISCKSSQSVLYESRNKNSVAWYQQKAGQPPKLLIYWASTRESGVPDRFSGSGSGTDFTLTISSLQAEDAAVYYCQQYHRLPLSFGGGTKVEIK

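Phage display of a naive human antibody library on the peptide gave the parent. These sequences belong to a second round, designed from the earlier measurements on random variants of the parent. Their group label is 14L_Ctrl (Ctrl: baseline library sampled from a position-specific scoring matrix, with some repeated check sequences). In AlphaSeq, yeast of one mating type display the scFv and yeast of the other type display the target. The frequency of each diploid, read from paired DNA barcodes, reflects how well the two displayed proteins bind. The ratio of observed to expected reads was calibrated, replicate by replicate, on BCL2-family standards whose Kd was known from biolayer interferometry. The assay was run in six technical replicates.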

Variants are written as CDR1, CDR2 and CDR3 of the light chain (limits as in the source). Parent: KSSQSVLYESRNKNSVA, WASTRES, QQYHRLPLS. Values are log10 of the apparent Kd in nM; lower means stronger binding. Averages over replicates are reported, and they cover detected replicates only. "nd" means that the variant was in the library but no mating with the target was seen in that replicate; the authors take this as a sign of poor binding, and no number exists. Of ten entries with the parent sequence, four were seen in most replicates (averages 0.34 to 2.37), three in one and three in none, so single entries are noisy. A sequence measured in both rounds can read differently, since the two assays cover different ranges. Three control strains display no target. For all light chain designs, 4% of the pairings with them gave a signal, with a median of 2.64 and one signal in twenty below 1.59, so weak values seen in few replicates may be background. Also given: how often the same scFv was detected with the empty control strains. In the paper, a design with two or fewer of six values counts as a poor binder.

Variant KSSQSVLYESRNFNSVA | FASTRES | QQHHRLPLS gave nd, nd, nd, nd, nd, nd (controls 1 of 18).
Variant KSSQSVLYESRNKNSVA | WASTRSS | QRYHRLPLS gave nd, nd, nd, nd, 1.52, nd (controls 2 of 18).
Variant KSSQSVLYESRNKNSVA | DASTRES | QQYHRLPLK gave 0.55, 0.51, 0.40, 0.32, 0.34, 0.51 (mean 0.44; controls 2 of 18).
Variant KSSQSVLYESRNHNSVA | DASTREN | QQYHRLPLS gave nd, nd, nd, nd, nd, nd (controls 0 of 18).
Variant KLSQSVLYESSNKNSVA | WADTRES | QQYARLPLS gave 0.63, -0.21, 0.02, 0.84, -0.47, -0.21 (mean 0.10; controls 0 of 18).
Variant KSSQEVLYESRNKNSVA | DASTRES | QQYHRLPLS gave -0.25, -0.14, -0.30, -0.37, 0.03, -0.02 (mean -0.17; controls 2 of 18).
Variant KSSQSSLAESRNKNSVA | WASTRES | QQAMILPLS gave nd, nd, nd, nd, nd, nd (controls 0 of 18).
Variant KSSQSVLYEQRNKNSVA | WASTRES | QDYHRLGLS gave nd, nd, nd, nd, nd, nd (controls 0 of 18).
Variant KSSQSVLYESDNKNSVA | DASTRES | QQYHRLPLS gave 0.35, 0.39, 0.05, 0.12, 0.28, 0.39 (mean 0.26; controls 1 of 18).
Variant KSSYSVAYESRNKNSVA | WASTREE | QQYHRFPLS gave 2.20, 3.12, 1.98, nd, 2.61, 1.46 (mean 2.27; controls 0 of 18).
Variant KSEHSVLYESRNVNSVA | WASTRES | QQYARLPLS gave nd, 0.61, 1.93, 3.69, 1.76, nd (mean 1.99; controls 0 of 18).
Variant KCSQSVPNESRNKNSVA | WASTRSS | QQYHRLPFS gave 0.98, 0.87, 0.69, 1.23, 1.04, 0.99 (mean 0.97; controls 0 of 18).
Variant KSSQSVLYTSENKNSVA | HASIRES | QQYHRLPLS gave 0.46, 0.58, 0.43, 0.51, 0.46, 0.83 (mean 0.55; controls 0 of 18).
Variant KSSQSVLYESRNKASVA | AASTGES | QQYHRLPLS gave nd, nd, nd, nd, nd, 2.95 (controls 3 of 18).
Variant SSSPLVLTESRNANSVA | WASTRES | QQYHRLPLS gave nd, nd, 2.14, nd, nd, nd (controls 1 of 18).
Variant KSSDSVLYESLNKNSVA | WASTRQS | QQYHRLPLS gave nd, 2.17, 1.90, 2.52, 3.11, 2.90 (mean 2.52; controls 0 of 18).
Variant KSSQSVLSESRNTNSVA | WASTRES | QQYHELPES gave nd, nd, nd, nd, nd, nd (controls 0 of 18).
Variant KSSQSVLYESRNKNSVA | QASTRSS | QQHHRLPLS gave 2.39, 2.21, 2.83, nd, 2.80, nd (mean 2.56; controls 0 of 18).
Variant KVSQSVLYEGRNKNSVA | SASTRES | QQYHRLPLS gave 0.99, 1.05, 0.76, 0.89, 1.15, 1.10 (mean 0.99; controls 0 of 18).
Variant KSSQSWVYESRNKNSVA | WASTRES | QQYHRLPLS gave nd, 0.97, 0.87, 1.54, 1.54, 1.71 (mean 1.33; controls 0 of 18).
Variant KSSQSVLYESRNKNSVA | DASTREK | QQYERLPLS gave 0.40, 0.46, 0.82, -0.06, 0.68, 0.46 (mean 0.46; controls 0 of 18).
Variant KLSQSVLYESRNKNSIA | HASTRES | GQYHRLPLS gave 0.65, 1.89, 0.76, 0.93, 0.38, 0.77 (mean 0.90; controls 0 of 18).
Variant KSSQSVLYESRNKNSVA | SDSTRES | QQYHRLPLS gave 1.17, 1.02, 1.51, 0.83, 1.00, 1.10 (mean 1.10; controls 0 of 18).
Variant KSSQSVLYEDRYKSSVA | WASTRES | QQSHRLPLS gave nd, nd, nd, nd, nd, nd (controls 0 of 18).
Variant KSSQNVLYESRNKNSIA | WAQTRES | QQYHRLPLS gave 0.63, 1.83, 1.46, nd, nd, 3.26 (mean 1.79; controls 0 of 18).
Variant KSYSSVLKESLNKNPVA | WASTRER | QQYHRLPCS gave nd, nd, nd, nd, nd, nd (controls 0 of 18).
Variant KCSQGELYPSTNKNSVA | WASTRES | TVPIRLPLS gave nd, nd, nd, nd, nd, nd (controls 0 of 18).
Variant KTSQSALYEFRNKNSVA | WASTRES | QQYHRLHLS gave nd, nd, nd, nd, nd, nd (controls 0 of 18).
Variant DSEQSVLYESRNKNSVA | WASTRES | QQYHRLPLS gave nd, nd, nd, nd, nd, nd (controls 0 of 18).
Variant KSSQSVLYESRNKNSVA | WASTRES | QQYLRLPLS gave 1.68, nd, 1.68, 2.32, 2.74, 2.46 (mean 2.18; controls 1 of 18).
Variant KCPQSVLYESRNNNSVA | AASTRRS | QQYHRLPPS gave nd, nd, nd, nd, nd, 2.82 (controls 1 of 18).
Variant KSAQSVLYESRNKNSVA | WASRRES | QQYHRLPLS gave nd, nd, nd, nd, nd, nd (controls 0 of 18).
Variant KSSQSVLYLSRNKNSVA | SASTRES | QDKHSLPLS gave nd, 1.30, 0.44, 1.39, 1.11, 1.44 (mean 1.14; controls 0 of 18).
Variant KSSQSVLYESRHFNSVA | AASERES | QQYHRLPLE gave 0.70, 0.88, 1.07, 1.23, 0.73, 1.17 (mean 0.96; controls 2 of 18).
Variant KDSQSVLYESRNHNSVA | WASTRES | QYYHRLPLS gave nd, nd, nd, nd, nd, nd (controls 0 of 18).
Variant KISQSVLYESRNLNSVA | GASTRES | QQYHRLPLS gave 0.43, 0.53, 0.35, 0.40, 0.46, 0.41 (mean 0.43; controls 2 of 18).
Variant KSSQSVLYEGRNKNSVA | WASTRCS | QDYHRDPLS gave nd, nd, nd, nd, nd, nd (controls 0 of 18).
Variant KFSQSKLYESRNKNSVA | WASTREQ | QQYHRLPLS gave 0.93, 0.85, 0.74, 0.86, 0.78, 0.64 (mean 0.80; controls 2 of 18).
Variant KSSQNVLYESENKNSVA | WASTRES | QQYHRLPLS gave 1.66, 0.59, 1.67, 1.27, 0.52, 0.94 (mean 1.11; controls 0 of 18).
Variant KSSQSVLYEDRNKNSVA | AASTRES | QQYRQLPLA gave 0.38, 0.16, -0.08, 0.02, -0.18, -0.06 (mean 0.04; controls 1 of 18).
Variant KSSQSVLYESNNKNSVA | SASTRES | QQYHRLPLS gave 0.71, 0.48, 0.31, 0.85, 0.37, 0.87 (mean 0.60; controls 0 of 18).
Variant KSSQSVLYASDNKNSVA | GASTRES | QQYHRMPLS gave 0.53, 0.58, 0.30, 0.23, 0.87, 1.00 (mean 0.58; controls 0 of 18).
Variant KSSQSVLYESRNLNSVA | GASTRES | QQYHRLPLS gave 0.03, -0.10, 0.02, -0.05, -0.09, 0.10 (mean -0.01; controls 2 of 18).
Variant KSSQSVLYESRNKNSVA | WASTREL | QQYHRLPLF gave nd, nd, nd, nd, nd, nd (controls 0 of 18).

Repeated from above, the 6 best binders with a signal in all replicates:

CDR-L1,CDR-L2,CDR-L3,"log10 Kd, replicates","mean, log10 nM",signal with controls
KSSQEVLYESRNKNSVA,DASTRES,QQYHRLPLS,"-0.25, -0.14, -0.30, -0.37, 0.03, -0.02",-0.17,2 of 18
KSSQSVLYESRNLNSVA,GASTRES,QQYHRLPLS,"0.03, -0.10, 0.02, -0.05, -0.09, 0.10",-0.01,2 of 18
KSSQSVLYEDRNKNSVA,AASTRES,QQYRQLPLA,"0.38, 0.16, -0.08, 0.02, -0.18, -0.06",0.04,1 of 18
KLSQSVLYESSNKNSVA,WADTRES,QQYARLPLS,"0.63, -0.21, 0.02, 0.84, -0.47, -0.21",0.10,0 of 18
KSSQSVLYESDNKNSVA,DASTRES,QQYHRLPLS,"0.35, 0.39, 0.05, 0.12, 0.28, 0.39",0.26,1 of 18
KISQSVLYESRNLNSVA,GASTRES,QQYHRLPLS,"0.43, 0.53, 0.35, 0.40, 0.46, 0.41",0.43,2 of 18

The measurements come from Li et al. 2023 (doi:10.1038/s41467-023-39022-2) through the FLAb antibody collection.